The chains behind the UniProt entries cited, without tags or fusion partners.
UniProt P30291, whole entry: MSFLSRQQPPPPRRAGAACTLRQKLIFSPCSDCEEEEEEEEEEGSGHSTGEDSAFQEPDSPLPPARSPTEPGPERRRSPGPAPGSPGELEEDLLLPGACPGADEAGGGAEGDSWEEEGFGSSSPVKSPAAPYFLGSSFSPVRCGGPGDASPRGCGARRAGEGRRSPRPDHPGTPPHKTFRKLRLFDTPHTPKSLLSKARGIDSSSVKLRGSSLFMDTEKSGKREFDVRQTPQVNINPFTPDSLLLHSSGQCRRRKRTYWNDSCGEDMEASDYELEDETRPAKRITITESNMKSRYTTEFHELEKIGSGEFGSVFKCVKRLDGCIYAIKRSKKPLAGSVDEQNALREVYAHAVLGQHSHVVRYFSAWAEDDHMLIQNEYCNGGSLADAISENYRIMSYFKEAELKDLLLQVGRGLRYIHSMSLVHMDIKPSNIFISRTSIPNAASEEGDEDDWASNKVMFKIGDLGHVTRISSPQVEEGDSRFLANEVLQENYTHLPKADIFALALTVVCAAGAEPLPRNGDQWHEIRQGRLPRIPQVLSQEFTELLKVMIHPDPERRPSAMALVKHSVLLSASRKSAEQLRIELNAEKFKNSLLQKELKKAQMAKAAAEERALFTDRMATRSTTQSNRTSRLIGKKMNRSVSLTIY

In US11613545B2, “Macrocyclic compound serving as Wee1 inhibitor and applications thereof” (WUXI BIOCITY BIOPHARMACEUTICS CO., LTD., priority 2017, dated 2023):

What was measured:
Wee1 = Wee1 (Homo sapiens, UniProt P30291); experiment: In vitro enzymatic inhibitory activity, Wee1 kinase (Eurofins, [γ-33P]-ATP filter assay); format: biochemical; conditions: read-out: Wee1 (IC50 nM); 10 μM [γ-33P]-ATP, 40 min at room temperature
[1] = test system: human colon cancer LoVo cell subcutaneous xenograft tumor; experiment: In vivo pharmacodynamic study, LoVo subcutaneous xenograft tumor model; conditions: 40 mg/kg twice daily, after administration for 16 days
MDR1-MDCK II cells = experiment: In vitro permeability test in MDR1-MDCK II cells (bidirectional transport); conditions: 2 μM, 150 minutes
[2] = Pharmacokinetic evaluation in plasma after single intravenous and single oral administration; conditions: female Balb/c Nude mice
[3] = plasma, 1 mg/kg intravenous, 10 mg/kg oral study

SMILES	IC50 (Wee1)	TGI (%) [1]	Efflux ratio (MDR1-MDCK II cells)	Penetration rate A to B (MDR1-MDCK II cells; A to B)	Penetration rate B to A (MDR1-MDCK II cells; B to A)	Clearance rate [2, 3]	Concentration integral AUC [2, 3]	Half-life T1/2 [2, 3]	Bioavailability F ([2]; 10 mg/kg by gavage vs 1 mg/kg intravenous)
CN1CCN(c2ccc(Nc3ncc4c(=O)n5n(c4n3)-c3cccc(n3)C(O)CC/C=C\C5)cc2)CC1 (single isomer, unassigned)	92 nM	–	–	–	–	–	–	–	–
CN1CCN(c2ccc(Nc3ncc4c(=O)n5n(c4n3)-c3cccc(n3)C(C)(O)CC/C=C\C5)cc2)CC1 (single isomer, unassigned) [Compound 1]	58 nM	48.67%	4.19	4.76 10^−6 cm/s	19.94 10^−6 cm/s	46.7 mL/min/kg	5.166 µM·h	1.3 h	74.6%
CN1CCN(c2ccc(Nc3ncc4c(=O)n5n(c4n3)-c3cccc(n3)C(C)(O)CCCCC5)cc2)CC1 (single isomer, unassigned)	93 nM	–	–	–	–	–	–	–	–
